From patent US8748113B2, “Methods for detecting and monitoring circulating cancer stem cells” (The Johns Hopkins University, priority 2007, dated 2014)

Experiments:
Assay type in all cases: cell-based, human
[1] = tested on: CD138neg MM progenitors derived from primary clinical specimens; test: Clonogenic recovery of CD138neg MM progenitors from primary clinical samples; conditions: 4 MM patients; FIG. 10C; P>0.2 compared to the untreated control
[2] = tested on: CD138+ plasma cells from the RPMI 8226 and NCI-H929 MM cell lines; test: Clonogenic growth of CD138+ plasma cells isolated from MM cell lines; conditions: FIGS. 10A and B, P<0.02 compared to the untreated control
[3] = tested on: clonogenic MM cells; test: In vitro clonogenic growth of MM precursors (summary statements); conditions: summary statement
Text: Many agents are active in multiple myeloma (MM), but the majority of patients relapse. […] We further characterized clonogenic MM cells and stained cell lines using the Hoechst side population and Aldefluor assays. […] Furthermore, both the side population and Aldefluor assays were capable of identifying circulating clonotypic memory B cell populations within the peripheral blood of MM patients.
Rituximab and alemtuzumab, two humanized monoclonal antibodies that target the B-cell antigens CD20 and CD52, respectively, inhibit clonogenic MM cells. CD138^− precursors or CD138^+ plasma cells were isolated from the RPMI 8226 or NCI-H929 cell lines and treated with each of the two humanized monoclonal antibodies, rituximab or alemtuzumab, and in combination with human complement that strongly enhances their in vitro activity through complement dependent cytoxicity. Neither complement alone nor the monoclonal antibodies with or without complement affected the clonogenic growth of CD138^+ plasma cells that lack the target antigens (FIG. 8B; P>0.3 for all groups compared to the untreated control).
Although stem cells have been identified in an increasing number of human cancers, the clinical relevance and implications of these findings remain unclear. […]

Q: Which results are given for 4 hydroperoxycyclophosphamide?
A: effect on clonogenic MM precursors from patients [1]: not significantly affected; clonogenic growth of CD138+ plasma cells [2]: inhibited; effect of anti-myeloma agents on CD138neg precursors / clonogenic MM progenitors [3]: little effect
